{"source": "PubChem BioAssay AID2825", "about": "(Sanford-Burnham Center for Chemical Genomics, 2010)", "note": "Only a part is listed here, and it is no random draw. Active and inactive are the calls of the source.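 The calls were made as follows: active = inhibition of 50% or more; inactive = inhibition below 50%.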"}
{"assay": "blockers of yeast NLRP3/ASC/caspase-1 reporter – luminescence, uHTS, primary screen (AID 2825);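 also: plate controls were induced DMSO wells for no effect and uninduced yeast grown without galactose for full effect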", "settings": "Yeast reconstituted NLRP3/ASC/caspase-1, beta-gal luminescence, 24 h; at 10 µM; stronger effect = higher value"}
{"smiles": "CN(C)C(=O)c1cc([N+](=O)[O-])cc2c1-c1c(cc([N+](=O)[O-])cc1[N+](=O)[O-])C2=O", "inhibition": "inactive: 19.4%"}
{"smiles": "CCOP1(=S)c2c(C)nn(CCC#N)c2N=C(c2ccc(F)cc2)N1C", "note": "(centres undefined)", "inhibition": "inactive: 4.25%"}
{"smiles": "CN(C(=O)Cc1ccccc1)[C@@H]1CC[C@]2(CCCO2)C[C@H]1N1CCCC1", "inhibition": "inactive: 23.2%"}
{"smiles": "N#CCCN(C(=O)COC(=O)C(O)(c1ccccc1)c1ccccc1)c1ccc(F)cc1", "inhibition": "inactive: 27%"}
{"smiles": "NC(=O)Nc1ccc([As](=O)(O)O)cc1", "inhibition": "inactive: 17.4%"}
{"smiles": "Cc1cccc(OCC(=O)OC2CN3CCC2CC3)c1", "note": "(centres undefined)", "inhibition": "inactive: 10.7%"}
{"smiles": "O=[As](O)(c1cccc(O)c1)c1cccc(O)c1", "inhibition": "inactive: 5.15%"}
{"smiles": "CS(=O)(=O)c1ccc(Cl)c(NC(=O)COC(=O)C(O)(c2ccccc2)c2ccccc2)c1", "inhibition": "inactive: 22.6%"}
{"smiles": "O=[As](O)(O)c1cccnc1", "inhibition": "inactive: -5.6%"}
{"smiles": "COc1cc(C(=O)NCC2(N3CCOCC3)CCCCC2)cc(Cl)c1OC(C)C", "inhibition": "inactive: -2.04%"}
{"smiles": "O=C(OC1CN2CCC1CC2)c1ccc(Cl)cc1", "note": "(centres undefined)", "inhibition": "inactive: 10.1%"}
{"smiles": "CCOP(=O)(Nc1cccc2ccccc12)OCC", "inhibition": "inactive: 6.74%"}
{"smiles": "COc1cc(C2NCCC3(OCCO3)C2(C)C)cc(OC)c1OC", "note": "(centres undefined)", "inhibition": "inactive: 11.7%"}
{"smiles": "CCCOP(=S)(Nc1nc(N)cc(=O)[nH]1)OCCC", "inhibition": "inactive: -10.8%"}
{"smiles": "Cc1ccc(NCCc2c([N+](=O)[O-])cc([N+](=O)[O-])cc2[N+](=O)[O-])cc1", "inhibition": "inactive: 33.7%"}
{"smiles": "COc1cc(I)ccc1[As](=O)(O)O", "inhibition": "inactive: -0.566%"}
{"smiles": "COc1ccc2nc(NP(=O)(c3ccccc3)c3ccccc3)sc2c1", "inhibition": "inactive: 12.1%"}
{"smiles": "Cc1cc(=O)[nH]c(N[N+](=O)[O-])n1", "inhibition": "inactive: 1.5%"}
{"smiles": "O=C(OC1CN2CCC1CC2)C12CC3CC(CC(C3)C1)C2", "note": "(centres undefined)", "inhibition": "inactive: 8.17%"}
{"smiles": "Cc1c2c(nc3ccccc13)SC(C(Cl)Cl)C2", "note": "(centres undefined)", "inhibition": "inactive: 22%"}
{"smiles": "COc1ccc(N/C(=N/P(=O)(N2CCOCC2)N2CCOCC2)N2CCOCC2)cc1", "inhibition": "inactive: 2.64%"}
{"smiles": "Cc1ccc2nc3c(c(C)c2c1)CC(C(Cl)Cl)S3", "note": "(centres undefined)", "inhibition": "inactive: 27.3%"}
{"smiles": "Cc1ccc(OP(=O)(Nc2ccc([N+](=O)[O-])cn2)Oc2ccc(C)cc2)cc1", "inhibition": "inactive: 16.9%"}
{"smiles": "COc1cc(C(=O)NCC2(N3CCOCC3)CCCCC2)ccc1OCC(C)C", "inhibition": "inactive: 4.22%"}
{"smiles": "C[As](=O)(O)c1cccc(C(=O)O)c1", "inhibition": "inactive: -0.47%"}
{"smiles": "O=[As](O)(c1ccc(O)cc1)c1ccccc1O", "inhibition": "inactive: -0.978%"}
{"smiles": "O=[N+]([O-])c1cc([N+](=O)[O-])c(-c2ccn[nH]2)s1", "inhibition": "inactive: 27.8%"}
{"smiles": "CC(C)NC(=O)NP(=O)(Oc1ccccc1)Oc1ccccc1", "inhibition": "inactive: 27.4%"}
{"smiles": "O=C(OC1CN2CCC1CC2)c1cccc2[nH]cnc12", "note": "(centres undefined)", "inhibition": "inactive: 11.3%"}
{"smiles": "CCN(CC)C(=S)SC(NC=O)C(Cl)(Cl)Cl", "note": "(centres undefined)", "inhibition": "inactive: -5.04%"}
{"smiles": "CC(C)c1ccc(OP(=O)(Nc2ccccn2)Oc2ccccc2F)cc1", "note": "(centres undefined)", "inhibition": "inactive: 25.3%"}
{"smiles": "ClCCSc1nnc(-c2cccnc2)o1", "inhibition": "inactive: -2.57%"}
{"smiles": "Cc1cc(SC(NC(=O)c2ccccc2)C(Cl)(Cl)Cl)nc(C(C)C)n1", "note": "(centres undefined)", "inhibition": "inactive: -3.49%"}
{"smiles": "CCCCOc1ccc(C(=O)NCC2(N3CCCCC3)CCCCC2)cc1OC", "inhibition": "inactive: 13.8%"}
{"smiles": "CCOC(=O)Nc1ccc([As](=O)(O)O)c(O)c1", "inhibition": "inactive: 9.41%"}
{"smiles": "O=P(Nc1ccccn1)(c1cccc2ccccc12)c1cccc2ccccc12", "inhibition": "inactive: -1.16%"}
{"smiles": "Cc1cc(SC(NC=O)C(Cl)(Cl)Cl)ncn1", "note": "(centres undefined)", "inhibition": "inactive: 10.8%"}
{"smiles": "CCOC(=O)Nc1cccc([As](=O)(O)O)c1", "inhibition": "inactive: 7.05%"}
{"smiles": "O=C(Nc1ccncc1[N+](=O)[O-])c1ccc([N+](=O)[O-])cc1[N+](=O)[O-]", "inhibition": "inactive: 16.5%"}
{"smiles": "O=C(COc1ccccc1)OC1CN2CCC1CC2", "note": "(centres undefined)", "inhibition": "inactive: 3.43%"}
{"smiles": "COP1(=S)c2c(C)nn(CCC#N)c2N=C(c2ccc(F)cc2)N1C", "note": "(centres undefined)", "inhibition": "inactive: 8.77%"}
{"smiles": "CCC(C)N(CC(C)C)C(=S)SC(NC(C)=O)C(Cl)(Cl)Cl", "note": "(centres undefined)", "inhibition": "inactive: 19.8%"}
{"smiles": "CCOC(=O)c1ccc(NC(=O)C(C)(CCl)SC)cc1", "note": "(centres undefined)", "inhibition": "inactive: 21.6%"}
{"smiles": "O=C(OC1CN2CCC1CC2)c1cccc([N+](=O)[O-])c1", "note": "(centres undefined)", "inhibition": "inactive: -19.1%"}
